From paper PMC7253423, “Quassinoid analogs with enhanced efficacy for treatment of hematologic malignancies target the PI3Kγ isoform” (Communications Biology, 2020)
Where “and” joins values, the source holds several entries; their conditions need not be identical. Equal values may be shown once.

Tests used:
BJAB cells = assay: Cell viability assay (CellTiter-Glo luminescence); assay type: cell-based, human; settings: relative to Control, Fig 1d / Fig 5a
Description: (§1) 5000 cells as indicated were cultured in 96-well plate with 100 μl of media. On the next day, Brusatol or associated analogs were added once to the cells without media change. After treatment, the cells were incubated with 100 μl buffer for 10 min at room temperature following the instructions of CellTiter-Glo kit (Promega, Madison, WI). Luminescence was detected using a multi-mode reader Cytation 5 (BioTek, Winooski, VT). Brusatol or its analogs are dissolved in 100% ethanol and diluted in 1 × PBS for treatment. Two independent experiments done in duplicates were performed.

WL-1 cells = assay: Cell viability assay (CellTiter-Glo luminescence); assay type: cell-based, human
Description: as §1

LCL1 cells = assay: Cell viability assay (CellTiter-Glo luminescence); assay type: cell-based, human
Description: as §1, with “On” for “5000 cells as indicated were cultured in 96-well plate with 100 μl of media. On”

[1] = Body weight of xenograft mice; assay type: in vivo, NOD/SCID mice; settings: individual mice, Fig S3i
Description: Six-week-old male NOD.CB17-Prkdc^scid/J (NOD/SCID) mice (Jackson Labs, Bar Harbor, ME, USA) were used as the human-in-mouse xeno-transplantation model. MOLM14 cells (1 × 10^7 cells) were injected into the subcutaneous space on the left flank of the mice. Once xenografts reached a size of 100 mm^3, Brusatol and analogs (#14, #15, #26, #31) at 2 mg/kg body weight or PBS were injected intraperitoneally three times per week. Body weight and tumor size were monitored before every injection. After treatment for 2 weeks, the mice were euthanized by CO2 inhalation and the tumors were carefully excised. The tumor volume (mm^3) was measured and calculated using the formula (a × b × b)/2 (a, the largest diameter of two measurements; b, the smallest diameter of two measurements).

MOLT-4 cells = assay: Cell viability assay (CellTiter-Glo luminescence); assay type: cell-based, human; settings: MOLT-4, relative to Control, Fig 1d / Fig 5a
Description: as §1

SU-DHL-6 cells = assay: Cell viability assay (CellTiter-Glo luminescence); assay type: cell-based, human; settings: SU-DHL-6, relative to Control, Fig 1d / Fig 5a
Description: as §1

Raji cells = assay: Cell viability assay (CellTiter-Glo luminescence); assay type: cell-based, human
Description: as §1

SU-DHL-4 cells = assay: Cell viability assay (CellTiter-Glo luminescence); assay type: cell-based, human; settings: for Relative cell viability: SU-DHL-4, relative to Control, Fig 1d / Fig 5a
Description: as §1

LCL2 cells = assay: Cell viability assay (CellTiter-Glo luminescence); assay type: cell-based, human; settings: LCL2, relative to Control, Fig 1d / Fig 5a
Description: as §1

SU-DHL-10 cells = assay: Cell viability assay (CellTiter-Glo luminescence); assay type: cell-based, human; settings: SU-DHL-10, relative to Control, Fig 1d / Fig 5a
Description: as §1

normal T-cells = assay: Cytotoxicity, cell viability assay in normal cells; assay type: cell-based, human; settings: fraction of 0 μM control
Description: (§2) Human peripheral blood mononuclear cells (PBMCs), normal T-cells and B-cells were provided by the University of Pennsylvania Human Immunology Core (HIC), and Patient-derived xenografts (PDXs) were obtained from Fox Chase Cancer Center (FCCC). These samples were from different unidentified and healthy donors with written, informed consent. All the procedures were approved by the Institutional Review Board (IRB) and conducted according to the declarations of Helsinki protocols.
as §1

PBMC = assay: Cytotoxicity, cell viability assay in normal cells; assay type: cell-based, human
Description: as §2, §1

MOLM14 cells = assay: Cell viability assay (CellTiter-Glo luminescence); assay type: cell-based, human; settings: human
Description: as §1

RPMI-8226 cells = assay: Cell viability assay (CellTiter-Glo luminescence); assay type: cell-based, human; settings: human
Description: as §1

[2] = WL-1, relative to Control, Fig 1d / Fig 5a
[3] = LCL1, relative to Control, Fig 1d / Fig 5a
[4] = PBMC, Con. 0.015625 μM, fraction of 0 μM control

Compound | Relative cell viability (WL-1 cells; [2]) | Relative cell viability (LCL1 cells; [3]) | Body weight ([1]; 0d) | Body weight ([1]; 2d, in g (unit assumed)) | Body weight ([1]; 4d, in g (unit assumed)) | Body weight ([1]; 6d) | Body weight ([1]; 10d, in g (unit assumed)) | Body weight ([1]; 12d) | Relative cell viability (MOLT-4 cells) | Relative cell viability (SU-DHL-4 cells) | relative cell viability (Fig 6b), replicates (normal T-cells; Con. 0.000976563 μM) | relative cell viability (Fig 6a), replicates (PBMC; [4]) | also measured
COC(=O)C12OCC34C(CC5C(C)=C(OC(=O)C(N)Cc6ccccc6)C(=O)CC5(C)C3C(O)C1O)OC(=O)C(OC(=O)C=C(C)C)C24 (stereo not shown) [#14] | 0.1587 | 0.1677 | 28.7 | 29.48 and 27.25 and 26.35 | 27.19 and 27.16 and 27.13 (2×) | 28.06 and 28.8 and 27.88 and 27.13 | 28.49 | 29.2 |  |  |  |  | Relative cell viability (BJAB cells): 0.4209
COC(=O)C12OCC34C(CC5C(C)=C(OC(=O)CNC(=O)OC(C)(C)C)C(=O)CC5(C)C3C(O)C1O)OC(=O)C(OC(=O)C=C(C)C)C24 (stereo not shown) [#15] | 0.1931 | 0.206 | 22.66 | 22.71 | 25.54 | 24.51 and 24.49 and 25.15 | 25.1 and 26.52 | 25.08 and 25.51 | 0.0408 | 0.0482 | 0.9626 | 0.8377 | Relative cell viability (SU-DHL-6 cells): 0.09359 and 0.1752; relative cell viability (Fig 6f), replicates (Raji cells; Raji, Con. 0.00244141 μM, fraction of 0 μM control): 1.022; relative cell viability (Fig 6f), replicates (Raji cells; Raji, Con. 0.00976562 μM, fraction of 0 μM control): 1.151; Relative cell viability (Raji cells; Raji, relative to Control, Fig 1d / Fig 5a): 0.2778; relative cell viability (Fig 6d), replicates (SU-DHL-4 cells; SU-DHL-4, Con. 0.00244141 μM, fraction of 0 μM control): 1.071; relative cell viability (Fig 6d), replicates (SU-DHL-4 cells; SU-DHL-4, Con. 10 μM, fraction of 0 μM control): 0.04515; Relative cell viability (LCL2 cells): 0.2738; Relative cell viability (SU-DHL-10 cells): 0.0368; relative cell viability (Fig 6b), replicates (normal T-cells; Con. 0.000244141 μM): 1.007; relative cell viability (Fig 6b), replicates (normal T-cells; Con. 0.00390625 μM): 0.8377 and 1.06; relative cell viability (Fig 6b), replicates (normal T-cells; Con. 1 μM): 0.7967; relative cell viability (Fig 6a), replicates (PBMC; PBMC, Con. 0.0625 μM, fraction of 0 μM control): 0.8032
COC(=O)C12OCC34C(CC5C(C)=C(OC(=O)C6CCCN6)C(=O)CC5(C)C3C(O)C1O)OC(=O)C(OC(=O)C=C(C)C)C24 (stereo not shown) [#31] | 0.1971 | 0.2432 | 25.51 and 24.78 |  | 26.4 | 28.13 and 26.39 and 26.17 | 28.88 | 28.28 and 26.42 | 0.06412 | 0.1148 |  |  | Body weight ([1]; 8d): 27.05 and 26.22; Cell viability, raw luminescence reading (PBMC; Con. 0.0025 μM, Fig 5c): 20227
COc1c(OCCCN2CCOCC2)ccc2c1N=C(NC(=O)c1cnc(N)nc1)N1CCN=C21 [Copanlisib] |  |  |  |  |  |  |  |  |  |  | 1.11 | 0.797 | relative cell viability (Fig 6e), replicates (MOLM14 cells; 0.00244141 μM): 0.8364; relative cell viability (Fig 6e), replicates (MOLM14 cells; 2.5 μM): 0.2034; relative cell viability (Fig 6f), replicates (Raji cells; human, 0.00976562 μM): 1.169; relative cell viability (Fig 6f), replicates (Raji cells; human, 10 μM): 0.1392; relative cell viability (Fig 6d), replicates (SU-DHL-4 cells; human, 0.00244141 μM): 1.148; relative cell viability (Fig 6b), replicates (normal T-cells; Con. 0.015625 μM): 0.9874; relative cell viability (Fig 6a), replicates (PBMC; PBMC, Con. 0.000244141 μM, fraction of 0 μM control): 0.9767
COC(=O)C12OCC34C(CC5C(C)=C(OC(=O)CC(C)N)C(=O)CC5(C)C3C(O)C1O)OC(=O)C(OC(=O)C=C(C)C)C24 (stereo not shown) [#26] |  |  |  |  |  |  |  |  |  |  |  |  | Relative cell viability (RPMI-8226 cells): 0.1207; relative cell viability (Fig 6f), replicates (Raji cells; human, 0.00244141 μM): 1.044; Relative cell viability (WL-1 cells; human): 0.2025; Relative cell viability (LCL1 cells; human): 0.2229; relative cell viability (Fig 6a), replicates (PBMC; human, 0.000244141 μM): 0.9372
